Experimental data reported in US20260174749A1, “COMBINATION THERAPY WITH SUBSTITUTED 3-((3-AMINOPHENYL)AMINO)PIPERIDINE-2,6- DIONE COMPOUNDS” (Bristol-Myers Squibb Company, priority 2022, published 2026).

Tested on: 22RV1 cells
Assay: CTG proliferation assay, in-vitro combination screen, 22RV1
Assay type: cell-based
Conditions: second agent in combination with Compound I, 7 days
Procedure: Three prostate cancer cell lines LNCAP, VCAP, and 22RV1 were used in this screen. Briefly, LNCaP cells were cultured in RPMI medium supplemented with 10% FBS, 1% penicillin/streptomycin, 10 mM HEPES, 1 mM sodium pyruvate, and 1.5 g/L sodium bicarbonate. […] PC3 cells were cultured in F12K medium supplemented with 10% FBS and 1% penicillin/streptomycin. 22RV1 cells were cultured in RPMI1640 medium supplemented with 10% FBS and 1% penicillin/streptomycin. […] VCaP cells were cultured in DMEM medium supplemented with 10% FBS, 1% penicillin/streptomycin 1 mM sodium pyruvate, 1.5 g/L sodium bicarbonate on high bind treated tissue culture flasks (Corning CellBIND) to increase cell surface attachment. […] The combination plates seeded with cells were then incubated for 7 days at 37° C. and 5% CO2. Cell viability assays were then performed on the plates using Promega CellTiter-Glo (CTG) Luminescent Cell Viability Assay kit and following the manufacturer's protocol. 20 μL of CTG reagent was added to each well of the 384 well plate, and plates were then incubated for 45 minutes before measuring the […] using PerkinElmer EnVision Plate Reader.
Synergy is calculated by Bliss and HSA excess scores. […] A negative HSA excess score indicates antagonism, while a positive HSA excess indicates additivity and synergy is detected when also the Bliss excess score is positive. […]

CNC(=O)c1cc(Oc2ccc(NC(=O)Nc3ccc(Cl)c(C(F)(F)F)c3)cc2)ccn1 [Sorafenib, sorafenib]
Synergy excess: 0.17
